Data set [1] can be described thus: Biodistribution in paired DX3puroβ6/DX3puro xenograft mouse model: organs, urine, blood. It is filed as in vivo, mice. To be noted: athymic nu/nu, kidney, total radioactivity.
Data set [2] deals with integrin αvβ6-expressing DX3puroβ6 cell line. Nature of the data set: Cell binding and internalization of radiotracers, DX3puroβ6 cells. It is filed as cell-based, human.
Data set [3] has as its system αvβ6-negative DX3puro control cell line. Nature of the data set: Cell binding and internalization of radiotracers, DX3puro control cells. It is filed as cell-based, human.

The tissue uptake is the percentage of the injected dose found per gram of tissue. Take `CC(C)C[C@H](NC(=O)[C@H](CC(=O)O)NC(=O)CNC(=O)[C@H](CCCNC(=N)N)NC(=O)[C@H](CC(C)C)NC(=O)[C@H](CC(N)=O)NC(=O)[C@@H]1CCCN1C(=O)[C@@H](NC(=O)[C@H](C)NC(=O)[C@H](CC(N)=O)NC(=O)CCOCCOCCOCCOCCOCCOCCOCCOCCOCCOCCOCCOCCOCCOCCOCCOCCOCCOCCOCCOCCOCCOCCOCCOCCOCCOCCOCCOCCNC(=O)CN1CCN(CC(=O)O)CCN(CC(=O)O)CC1)C(C)C)C(=O)N[C@@H](CCC(N)=O)C(=O)N[C@H](C(=O)N[C@@H](CC(C)C)C(=O)N[C@@H](C)C(=O)N[C@@H](CCC(N)=O)C(=O)N[C@@H](CCCCN)C(=O)N[C@H](C(=O)N[C@@H](C)C(=O)N[C@@H](CCCNC(=N)N)C(=O)N[C@H](C(N)=O)[C@@H](C)O)C(C)C)C(C)C` [Al[^18F]-NOTA-PEG28-A20FMDV2]: the tissue uptake at 4 h in data set [1] amounted to 229 %ID/g.
As to `CC(C)C[C@H](NC(=O)[C@H](CC(=O)O)NC(=O)CNC(=O)[C@H](CCCNC(=N)N)NC(=O)[C@H](CC(C)C)NC(=O)[C@H](CC(N)=O)NC(=O)[C@@H]1CCCN1C(=O)[C@@H](NC(=O)[C@H](C)NC(=O)[C@H](CC(N)=O)NC(=O)CCOCCOCCOCCOCCOCCOCCOCCOCCOCCOCCOCCOCCOCCOCCOCCOCCOCCOCCOCCOCCOCCOCCOCCOCCOCCOCCOCCOCCNC(=O)[C@H](CCC(=O)O)NC(=O)[C@H](CCCCNC(=O)CCCc1ccc(I)cc1)NC(=O)c1ccc(F)cc1)C(C)C)C(=O)N[C@@H](CCC(N)=O)C(=O)N[C@H](C(=O)N[C@@H](CC(C)C)C(=O)N[C@@H](C)C(=O)N[C@@H](CCC(N)=O)C(=O)N[C@@H](CCCCN)C(=O)N[C@H](C(=O)N[C@@H](C)C(=O)N[C@@H](CCCNC(=N)N)C(=O)N[C@H](C(=O)NCCOCCOCCOCCOCCOCCOCCOCCOCCOCCOCCOCCOCCOCCOCCOCCOCCOCCOCCOCCOCCOCCOCCOCCOCCOCCOCCOCCOCCC(N)=O)[C@@H](C)O)C(C)C)C(C)C`, the “Binding to DX3puroβ6 cells (fraction of total radioactivity)” value in data set [2] (60 min incubation) is 52%. The “Internalized share of bound radioactivity, DX3puroβ6 cells” value in data set [2] (of bound radioactivity) was 56%. Besides, the “Binding and internalization in DX3puro control, in words” value in data set [3] is recorded as “low”.
